By UniProt entry, the sequences of proteins in these tests, tags left out. Residues count along the entry.
UniProt P55899, 24-297 limits assumed, chain 1 of 2: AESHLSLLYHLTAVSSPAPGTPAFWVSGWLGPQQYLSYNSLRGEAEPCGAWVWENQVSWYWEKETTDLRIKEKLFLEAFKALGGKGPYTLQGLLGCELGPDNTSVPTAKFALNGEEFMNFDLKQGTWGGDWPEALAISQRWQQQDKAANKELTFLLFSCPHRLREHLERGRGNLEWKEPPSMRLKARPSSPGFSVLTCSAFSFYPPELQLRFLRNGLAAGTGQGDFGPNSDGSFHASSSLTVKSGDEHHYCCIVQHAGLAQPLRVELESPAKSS

In US20200255511A1 (TILLOTTS PHARMA, published 2020):

Molecular target: T1, monomeric His-tagged human FcRn (human, UniProt P55899 24-297; P61769 21-119, limits assumed)
T1 construct: also called hFcRn
Test: SPR (Biacore 3000) at pH 6.0, antibody amine-coupled, monomeric His-tagged hFcRn as analyte, 25 °C

Kd: 425 nM
B1: infliximab (antibody)
chain 1: not shown
chain 2: DILLTQSPAILSVSPGERVSFSCRASQFVGSSIHWYQQRTNGSPRLLIKYASESMSGIPSRFSGSGSGTDFTLSINTVESEDIADYYCQQSHSWPFTFGSGTNLEVKRTVAAPSVFIFPPSDEQLKSGTASVVCLLNNFYPREAKVQWKVDNALQSGNSQESVTEQDSKDSTYSLSSTLTLSKADYEKHKVYACEVTHQGLSSPVTKSFNRGEC
